{"source": "patent US20120220664A1", "about": "“USE OF METFORMIN IN CANCER TREATMENT AND PREVENTION” (priority 2009, published 2012)", "origin": "cited, not measured here", "tested_on": "non-transformed cells", "settings": "typically 10-30 mM metformin; previous experiments (refs 7-9); cited from earlier work"}
{"smiles": "CN(C)C(=N)N=C(N)N", "note": "[metformin]", "values": [{"measurement": "toxicity for non-transformed cells", "result": "toxic for non-transformed cells"}]}
